Measurements: patent US9446039B2, “Aminoheteroaryl compounds as MTH1 inhibitors” (CEMM—FORSCHUNGSZENTRUM FÜR MOLEKULARE MEDIZIN GMBH, priority 2012, dated 2016)

Columns and labels:
MTH1 = MTH1 (Homo sapiens, UniProt P36639); assay: MTH1 catalytic assay (luminescence-based, PPi from 8-oxo-dGTP hydrolysis, PPiLight); conditions: read-out: IC50, inhibition of MTH1 catalytic activity
ALK = assay: Drug pull-down with immobilized compounds from SH-SY5Y cells, Western blot for ALK; format: binding, human; conditions: SH-SY5Y lysate

**Q.** For `CC(Oc1cc(-c2cnn(C3CCN(C(=O)CCCCCN)CC3)c2)cnc1N)c1c(Cl)ccc(F)c1Cl` (racemic), which IC50 (MTH1) is on record?
**A.** The IC50 was 500 nM.

**Q.** What about the “enrichment / binding of ALK isoforms by immobilized compound” value (ALK) of the same compound?
**A.** The value was “bind ALK to a lesser extent”.
